In ChEMBL document CHEMBL4033785, “Increased Potency and Selectivity for Group III Metabotropic Glutamate Receptor Agonists Binding at Dual sites” (J Med Chem, 2018) one finds Ratio EC50 data, which are given here for three compounds.

Assay [1] is filed under the species Homo sapiens. As to the kind of experiment: Selectivity ratio of EC50 for mGlu8 (unknown origin) expressed in HEK293 cells coexpressing chimeric Gq/i protein assessed as increase in intracellular calcium accumulation to EC50 for mGlu4 (unknown origin) expressed in HEK293 cells coexpressing chimeric Gq/i protein assessed as increase in intracellular calcium accumulation. The class given is cell-based. Put shortly:
(§1)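 Ratio of mGlu8 EC50 to mGlu4 EC50, both from the same functional assay. Both receptors were co-expressed in HEK293 cells with chimeric G-protein and EAAT3 and read by 3H-IP accumulation or by Fluo-4 Ca2+ release.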

The species entered for assay [2] is Homo sapiens. Kind of assay: Selectivity ratio of EC50 for mGlu8 (unknown origin) expressed in HEK293 cells coexpressing chimeric Gq/i protein assessed as [3H]inositol phosphate accumulation to EC50 for mGlu4 (unknown origin) expressed in HEK293 cells coexpressing chimeric Gq/i protein assessed as [3H]inositol phosphate accumulation. Type of assay: cell-based. Put shortly: as §1

Molecules are shown by their SMILES.

`COc1cc([C@@H](O)P(=O)(O)CC[C@H](N)C(=O)O)cc([N+](=O)[O-])c1O`: the Ratio EC50 in assay [1] was 25. The same measure, in the same setting: the figure for `COc1cc([C@H](O)P(=O)(O)CC[C@H](N)C(=O)O)cc([N+](=O)[O-])c1O` is 6. For `COc1cc(C(O)P(=O)(O)CC[C@H](N)C(=O)O)cc([N+](=O)[O-])c1O` (mixture of isomers), the Ratio EC50 in assay [1] is 21.5; in assay [2] it was 30.
